From patent US10660991B2, “Polymeric DHA-containing biodegradable compositions and surgical barrier devices made thereof” (CORNELL UNIVERSITY, priority 2016, dated 2020)

Assay: In vivo degradation of CC-DHA shields in a murine model
Conditions: mouse

## chemically crosslinked dihydroxyacetone-based hydrogel [CC-DHA]
  degradation rate in vivo versus in vitro: degraded more rapidly in vivo than in vitro
